From US20160213739A1, “TREATMENTS FOR DISORDERS USING GUANYLATE CYCLASE C AGONISTS” (Ironwood Pharmaceuticals, Inc., priority 2011, published 2016)

Biological target: Guanylate cyclase C (GC-C) on intact human T84 cells (human), P25092
Test: cell-based or functional assay

Point of comparison: CCSLCCNPACTGCY (modifications not checked) [Peptide 1], cGMP response of T84 cells, EC50 at pH 5 (nM) 9.8 nM. Against it:
- CCELCCNPACTGCY (modifications not checked) [Peptide 3] — higher, 16 nM
- CCSLCCNPACTGC (modifications not checked) [Peptide 2] — higher, 10.4 nM
